Measured values taken from patent US20250136594A1 (Tango Therapeutics, Inc., priority 2022, published 2025).

What follows are compounds tested on SDMA in HAP1 MTAP-deleted (MTAP-null) cell line (PRMT5 inhibition) (assay: SDMA in-cell western assay, HAP1 MTAP-deleted cell line). Conditions: ratio of SDMA IC50 in HAP1 MTAP-intact to HAP1 MTAP-deleted cell line.

| Compound | Hap1 MTAP intact/deleted ratio |
| --- | --- |
| Nc1ncc(NC(=O)C(=O)N(Cc2ccccc2)Cc2ccccc2)c2[nH]ncc12 [Compound 21, N-(4-amino-1H-pyrazolo[4,3-c]pyridin-7-yl)-N′,N′-dibenzyl-oxamide] | A (IC50 ratio greater than or equal to 30 fold) |
| C[C@H](c1ccc(F)cc1)N(C)C(=O)C(=O)Nc1cnc(N)c2cn[nH]c12 [Compound 144, (R)—N^1-(4-amino-1H-pyrazolo[4,3-c]pyridin-7-yl)-N^2-(1-(4-fluorophenyl)ethyl)-N^2-methyloxalamide] | A (IC50 ratio greater than or equal to 30 fold) |
| C[C@H](c1ccccc1F)N(C)C(=O)C(=O)Nc1cnc(N)c2cn[nH]c12 [Compound 162, (R)—N^1-(4-amino-1H-pyrazolo[4,3-c]pyridin-7-yl)-N^2-(1-(2-fluorophenyl)ethyl)-N^2-methyloxalamide] | A (IC50 ratio greater than or equal to 30 fold) |
| C[C@@H](c1ccc(C(F)(F)F)cc1C(F)(F)F)N(C)C(=O)C(=O)Nc1cnc(N)c2cn[nH]c12 [Compound 169, N-(4-Amino-2H-pyrazolo[4,3-c]pyridin-7-yl)-N′-methyl-N′—[(1S)-1-[2,4-bis (trifluoromethyl)phenyl]ethyl]oxamide] | A (IC50 ratio greater than or equal to 30 fold) |
| C[C@H](c1ccc(C(F)(F)F)cc1C(F)(F)F)N(C)C(=O)C(=O)Nc1cnc(N)c2cn[nH]c12 [Compound 193, N-(4-Amino-2H-pyrazolo[4,3-c]pyridin-7-yl)-N′-methyl-N′—[(1R)-1-[2,4-bis (trifluoromethyl)phenyl]ethyl]oxamide] | A (IC50 ratio greater than or equal to 30 fold) |
